Assay: Radioligand Binding Assay: An in vitro binding assay was used to determine the compound Ki value or ability to antagonize binding of a peptide agonist to the human melanin concentrating hormone receptor (MCHR1). Membranes from stably transfected HEK-293 cells expressing a mutated (E4Q, A5T) hMCHR1 receptor were prepared by dounce homogenization and differential centrifugation. Binding experiments were carried out with 0.5-1.0 ug of membrane protein incubated in a total of 0.2 mL in 25 mM HEPES (pH 7.4) with 10 mM MgCl2, 2 mM EGTA, and 0.1% BSA (Binding Buffer) for 90 min. For competition binding assays, reactions were carried out in the presence of with 0.06-0.1 nM [Phe13, [125I]Tyr19]-MCH and increasing concentrations of unlabeled test molecules. Reactions were terminated by rapid vacuum filtration over 96 well-GFC UNIFILTER plates pre-coated with 0.075 mL binding buffer containing 1% BSA, and washed 3 times with 0.4 mL of Phospho-buffered Saline (pH 7.4) containing 0.01% TX-100. Filters were dried, 0.05 mL MicroScint 20 was added to each well and radioactivity was subsequently quantified by scintillation counting on a TOPCOUNT microplate scintillation counter (Packard). Inhibitory constants were determined by nonlinear least squares analysis using a four parameter logistic equation.

Structure (SMILES)	Ki [nM]
CCc1cc(N2CC[C@H](Oc3ccc(C4CC4)cc3)C2=O)ccc1OCCN1CC[C@H](C)C1	3
CCc1cc(N2CC[C@H](Oc3ccc(C4CC4)cc3)C2=O)ccc1OCCN1CC[C@@H](C)C1	2
Cc1cc(N2CC[C@H](Oc3ccc(C4CC4)cc3)C2=O)ccc1OCCN1CCC1	0.8
O=C1C(Oc2ccc(C3CC3)cc2)=CCN1c1ccc(OCCN2CC(O)C2)c(OC(F)F)c1	0.6
COc1cc(N2CCC(Oc3ccc(OC(F)(F)F)cc3)C2=O)ccc1OCCn1ccnc1 (stereo unspecified)	239
COc1cc(N2CC=C(Oc3ccc(-c4ccccc4)cc3)C2=O)ccc1OCCN1CC(C)(O)C1	0.7

Source: ChEMBL document CHEMBL5725263, “Pyrrolone or pyrrolidinone melanin concentrating hormone receptor-1 antagonists” (2016)
